The values below come from patent publication US20240325495A1, “FUSION PROTEINS FOR THE TREATMENT OF DISEASE” (Bristol-Myers Squibb Company, priority 2020, published 2024).

The test system of test [1] is Kit225 Interferon Regulatory Factor 1 (IRF1)-driven reporter cell line. The experiment in a line: Kit225 IRF1-driven reporter cell line assay. As to conditions: read-out: average half-maximal effective concentration (EC50). The format is cell-based.
The subject of another test is Tregs in CD4+ T cells. As to conditions: SLE patients, 1 MIU SC every other day for 2 weeks, then 2-week treatment free; cited from earlier work.

With “recombinant IL-2: recombinant (human) IL-2 used as comparator; rhIL-2 in clinical SLE study [reference compound]”, the EC50 in test [1] is 0.027 nM. For the same substance, in the test on Tregs in CD4+ T cells, the “trough Δ% Tregs in CD4+ T cells” value was 1%.
